Screening data (PubChem)
Rows were chosen to be rich in hits. Some 16% of all compounds tested hit in one or more screens of this group.
miR-21 reporter – miR-21 reporter, rising signal | HeLa miR-21 FLuc reporter, luciferase, 48 h | Potency, µM (highest dose often 38.3 µM), for inactives: at the top dose reporter change, positive = more light | 340,000 tested, under 10 active | AID 2288; active = well fitted rising curve with a large enough effect; inconclusive = small, poorly fitted or top-dose-only effect; inactive = no such curve, though single readings can be large or run the other way;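 further: % of control where 0% means no effect; miR-21 action dims this reporter so a rising signal means less miR-21 action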
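Compounds were titrated across several concentrations (up to approximately 40 uM) and incubated 48 hours with HeLa miR-21-FLuc reporter cells (miR-21 target sequence downstream of FLuc, endogenous miR-21). Readout was firefly luciferase luminescence after lytic detection reagent.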
TDP1 cell CPT – growth inhibition of DT40 Tdp1-/-;hTDP1 cells with camptothecin (screen for TDP1 inhibitors) | Potency, µM (doses to about 46.2 µM), for inactives: top-dose activity change, negative = growth inhibition, actives largely listed as inhibitors | chicken DT40 Tdp1-/-;hTDP1 cells + 20 nM CPT, ATP luminescence, 48 h | AID 686979 | 12% of 420,000 active; further: potency means the concentration at half of the fitted maximal effect; on the % scale 0 is the no-effect control and ±100 the full control effect; nearly all actives have a fitted effect of over 55% in size
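Chicken DT40 Tdp1-/- cells complemented with human TDP1, 400 cells/well, exposed to compounds plus 20 nM camptothecin for at least 48 h at 37 C; viability read as ATP content by CellTiter-Glo luminescence.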
TDP1 cell noCPT – qHTS for Inhibitors of human tyrosyl-DNA phosphodiesterase 1 (TDP1): qHTS in cells in absence of CPT | Potency, µM (titrated, usually from 46.2 µM), without a hit: at the highest dose activity change, negative = growth inhibition, hits mostly inhibitors | DT40 Tdp1-/- hTDP1 cells, no CPT, ATP luminescence, 48 h | 15% of 420,000 active; further: potency means the concentration at half of the fitted maximal effect; on the % scale 0 is the no-effect control and ±100 the full control effect; nearly all actives have a fitted effect of over 55% in size
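DT40 Tdp1-/-;hTDP1 cells, no CPT (DMSO vehicle only), 400 cells/well; compounds pin-transferred; ≥48 hr, 37 °C; CellTiter-Glo 30 min RT dark, luminescence read.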
TDP1 inh – TDP1 (human) enzyme inhibition; AID 485290; Q9NUW8; recombinant TDP1, AlphaScreen DNA substrate cleavage; 0.28% of 350,000 active; Potency, µM (titrated, usually from 130 µM), inactives show at the top dose activity change, negative = inhibition, hits mostly inhibitors; further: potency means the concentration at half of the fitted maximal effect; on the % scale 0 is the no-effect control and ±100 the full control effect; nearly all actives have a fitted effect of over 40% in size
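Recombinant human Tdp1 (E. coli-expressed, 1 nM final) preincubated with compounds 15 min at room temperature, then 5'-biotin/3'-phosphotyrosine-FITC DNA substrate (15 nM final) added for 5 min. AlphaScreen beads (10 ug/ml final) added 10 min; cleavage lowers signal.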
uPA surface inh – inhibitors of cell surface uPA generation. cell surface uPA generation assay, qHTS. AID 540303. 0.31% of 330,000 active. Potency, µM (doses to about 38.3 µM), for the others: at the top dose activity change, negative = inhibition, hits mostly inhibitors; active means well fitted inhibition curve with a large enough effect; inconclusive means small, poorly fitted or top-dose-only effect; inactive means no such curve, though single readings can be large or run the other way; tested in mouse RAW 264.7 cells; further: potency means the concentration at half of the fitted maximal effect; on the % scale 0 is the no-effect control and ±100 the full control effect; nearly all actives have a fitted effect of over 55% in size
An asterisk follows results filed as active; ? = inconclusive; nt = no result; ! = not confirmed by another sample; [ ] = another dose, or the depositor's remark. Unless noted, the call rests on the fitted dose curve; in most records, active means well fitted curve in the direction sought with a large enough effect; inconclusive means small, poorly fitted or top-dose-only effect, or another doubt; inactive means no such curve, though single readings can be large; an effect the other way counts as inactive or inconclusive.

| No. | smiles | miR-21 reporter | TDP1 cell CPT | TDP1 cell noCPT |
| --- | --- | --- | --- | --- |
| 1 | Cc1c(OC(=O)N(C)C)ccc2c1O/C(=C\c1ccco1)C2=O | -48.2% | ? | ? |
| 2 | CCCc1[nH]nc2c1C1(C(=O)N(Cc3ccccc3)c3ccccc31)C(C(=O)OC)=C(N)O2 (stereo unspecified) | 20.1% | ? | ? |
| 3 | COC(=O)C1=C(C(=O)OC)[C@]2([C@@H]3CC=CCN[C@@H](Cc4ccccc4)C(=O)N3Cc3ccccc3)C=C[C@H]1O2 | nt | 18.4µM* | 11.6µM* |
| 4 | CN1C(=O)C2C[C@@]3(Br)c4ccccc4N(OOSc4ccccc4)[C@H]3N2C(=O)[C@@H]1Cc1ccccc1 (stereo partly specified) | nt | ? | ? |
| 5 | CC(=O)OCC(=O)[C@H]1CC[C@H]2[C@@H]3CC[C@H]4C[C@H](O)CC[C@]4(C)[C@H]3C(=O)C[C@]12C | nt | -4.8% | -25.1% |
| 6 | CC(=O)[C@@H]1CC[C@H]2[C@H]3CC[C@H]4C[C@@H](O)CC[C@]4(C)[C@@H]3C(=O)C[C@@]12C | nt | nt | nt |
| 7 | CC(=O)OC1CCC2(C)C(CCC3C4CC(N5CC5)C(C(C)=O)C4(C)CC(=O)C32)C1 (stereo unspecified) | nt | 11.6µM* | 14.6µM* |
| 8 | CC(=O)[C@H]1CC[C@H]2[C@@H]3CC[C@H]4C[C@H](O)CC[C@]4(C)[C@H]3C(=O)C[C@]12C | -8.9% | ? | 11.9µM*! |
| 9 | Clc1cc(Cl)c(Cl)c(Cl)c1 | nt | nt | nt |
| 10 | CCN1C[C@@]2(C)CC[C@@H](OC)[C@@]34C2C(O)[C@@]2(OCO[C@]25CC(OC)C2C[C@@]3(O)C5C2O)C14 (stereo partly specified) | nt | -0.6% | -1.5% |
| 11 | O=C1C2CCN(CC2)C1Cc1ccc(OCCOc2ccccc2)cc1 (stereo unspecified) | -2.9% | 29.1µM* | ? |
| 12 | [Cl][Pt+2][Cl].[NH-]C1CCCCC1[NH-] (stereo unspecified) | nt | 2.31µM* | 5.8µM* |

| No. | TDP1 inh | uPA surface inh |
| --- | --- | --- |
| 1 | nt | 4.1% |
| 2 | 2.3% | 3.5% |
| 3 | nt | 13.4% |
| 4 | nt | 29.9% |
| 5 | nt | 3.1% |
| 6 | 8.7%[21 µM] | nt |
| 7 | nt | -7.9% |
| 8 | 3.6% | -8.6% |
| 9 | 0.8% | nt |
| 10 | 5.7%[56.1 µM] | nt |
| 11 | 6.0% | -2.2% |
| 12 | nt | nt |

Single records, from the list above. Values in the order: miR-21 reporter	TDP1 cell CPT	TDP1 cell noCPT	TDP1 inh	uPA surface inh
Clc1cc(Cl)c(Cl)c(Cl)c1 is entered as nt	nt	nt	0.8%	nt
CCN1C[C@@]2(C)CC[C@@H](OC)[C@@]34C2C(O)[C@@]2(OCO[C@]25CC(OC)C2C[C@@]3(O)C5C2O)C14 (stereo partly specified) is entered as nt	-0.6%	-1.5%	5.7%[56.1 µM]	nt
COC(=O)C1=C(C(=O)OC)[C@]2([C@@H]3CC=CCN[C@@H](Cc4ccccc4)C(=O)N3Cc3ccccc3)C=C[C@H]1O2 is entered as nt	18.4µM*	11.6µM*	nt	13.4%
CC(=O)OCC(=O)[C@H]1CC[C@H]2[C@@H]3CC[C@H]4C[C@H](O)CC[C@]4(C)[C@H]3C(=O)C[C@]12C is entered as nt	-4.8%	-25.1%	nt	3.1%

Next part.
| No. | smiles | miR-21 reporter | TDP1 cell CPT | TDP1 cell noCPT |
| --- | --- | --- | --- | --- |
| 13 | COc1cc(C(=O)N2CCN(c3cccc(C)c3C)CC2)cc(OC)c1OC | 24.7% | 0.82µM* | 0.82µM* |
| 14 | Cc1cccc(N2CCN(C(=O)C34CC5CC(CC(C5)C3)C4)CC2)c1C | -7.8% | ? | ? |
| 15 | COc1ccccc1N1C(=O)NC(=O)/C(=C/c2ccc3c(c2)Cc2ccccc2-3)C1=O | -21.8% | 0.6% | -7.4% |
| 16 | CC(CC(C#N)(c1ccccc1)c1ccccc1)N1CCOCC1 (stereo unspecified) | nt | 23.1µM* | ? |
| 17 | N#CC(c1cccnc1)N1CCOCC1 (stereo unspecified) | 7.5% | -3.5% | 10.7% |
| 18 | c1ccc(CCn2nnnc2CN2CCC(n3nnc4ccccc43)CC2)cc1 | -15.2% | 1.4% | -27.8% |
| 19 | CSCCC(c1nnnn1C1CCCCC1)N1CCC(n2c(=O)[nH]c3ccccc32)CC1 (stereo unspecified) | nt | 18.4µM* | 9.2µM* |
| 20 | CSCCC(c1nnnn1-c1c(C)cccc1C)N1CCC(n2c(=O)[nH]c3ccccc32)CC1 (stereo unspecified) | nt | 25.9µM* | 18.4µM* |
| 21 | CC(C)(C)n1nnnc1C(CCc1ccccc1)N1CCC(n2c(=O)[nH]c3ccccc32)CC1 (stereo unspecified) | nt | 13µM* | 13µM* |
| 22 | CSCCC(c1nnnn1C1CCCC1)N1CCC(n2c(=O)[nH]c3ccccc32)CC1 (stereo unspecified) | nt | ? | 23.1µM* |
| 23 | Cc1ccsc1C(=O)C1CCCN(Cc2ccn[nH]2)C1 (stereo unspecified) | -1.7% | -6.4% | -8.2% |
| 24 | COC(=O)c1ccc(NC2=C(Cl)C(=O)OC2OC(=O)c2ccccc2)cc1 (stereo unspecified) | 0.5% | ? | ? |

| No. | TDP1 inh | uPA surface inh |
| --- | --- | --- |
| 13 | 5.2% | ? |
| 14 | 1.1% | 0.4% |
| 15 | nt | 3.0% |
| 16 | nt | -1.7% |
| 17 | nt | 9.7% |
| 18 | 5.8% | 4.5% |
| 19 | nt | nt |
| 20 | nt | nt |
| 21 | nt | nt |
| 22 | nt | nt |
| 23 | nt | 7.3% |
| 24 | 2.5% | 1.9% |

More compounds:
| No. | smiles | miR-21 reporter | TDP1 cell CPT | TDP1 cell noCPT |
| --- | --- | --- | --- | --- |
| 25 | C/C=C1\C[C@H](C)[C@@](O)(CO)C(=O)OCC2=CCN3CC[C@@H](OC1=O)[C@@H]23 | nt | nt | nt |
| 26 | O=c1[nH]c2ccccc2n1C1CCN(C(c2nnnn2C2CCCCC2)C2CC2)CC1 (stereo unspecified) | nt | ? | 14.6µM* |
| 27 | O=c1[nH]c2ccccc2n1C1CCN(C(CCc2ccccc2)c2nnnn2C2CCCCC2)CC1 (stereo unspecified) | nt | 20.6µM* | 13µM* |
| 28 | COc1ccc(CN2CCN(Cc3ccccc3F)CC2)cc1 | -5.5% | -6.2% | -27.9% |
| 29 | Cc1ccc(C(O)(C(=O)OC(C)C)C(O)c2ccc(F)cc2)cc1 (stereo unspecified) | nt | ? | 20.6µM* |
| 30 | CN(Cc1cccc(-c2ccncc2)c1)C(=O)Oc1ccccc1Cc1ccccc1 | nt | ? | 16.4µM* |
| 31 | Cc1nc2cc(OC(=O)N(C)Cc3cccc(-c4ccncc4)c3)ccc2s1 | nt | ? | 18.4µM* |
| 32 | O=C(Oc1ccccc1)N1CCC2(CCN(Cc3ccncc3)CC2)CC1 | nt | 0.0% | ? |
| 33 | CN1CC2([N+](=O)[O-])CC=C(Cl)C([N+](=O)[O-])(C1)C2 (stereo unspecified) | -2.8% | 0.1% | 0.6% |
| 34 | Cc1nc2ccccc2c(=O)n1-c1ccc(F)cc1F | -5.7% | -4.8% | -20.9% |
| 35 | O=C(CCN1CCOCC1)c1ccc(N2CCCCC2)cc1 | nt | 1.64µM* | 4.11µM* |
| 36 | CN1CCN(c2cc3c(cc2F)c(=O)c(C(=O)O)cn3-c2ccc(F)cc2)CC1 | nt | 10.6µM* | 23.7µM* |

| No. | TDP1 inh | uPA surface inh |
| --- | --- | --- |
| 25 | -8.3%[56.1 µM] | nt |
| 26 | nt | nt |
| 27 | nt | nt |
| 28 | nt | -7.0% |
| 29 | nt | nt |
| 30 | nt | nt |
| 31 | nt | nt |
| 32 | nt | nt |
| 33 | 4.8% | 2.3% |
| 34 | 3.9% | 0.6% |
| 35 | 1.3% | ? |
| 36 | 6.4% | nt |
